{
  "source": "PubChem BioAssay AID493140",
  "about": "(UCLA Molecular Screening Shared Resource, 2011)",
  "note": "This is a selection; strong and weak results do not stand in their true shares. The source made the active and inactive calls. How the calls were made is not given here.",
  "data": [
    {"assay": "hESC survival regulators, cell-based (AID 493140);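 further: cells exposed to compounds for four days before counting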", "details": "human embryonic stem cell survival screen; hits give high values", "values": [
      {"smiles": "C/C1=C2N=C(/C=C3N=C(/C(C)=C4\\[N-][C@@](C)([C@@H]5N=C1[C@](C)(CCC(=O)NC[C@@H](C)OP(=O)([O-])O[C@H]1[C@@H](O)[C@@H](n6cnc7cc(C)c(C)cc76)O[C@@H]1CO)[C@H]5CC(N)=O)[C@@](C)(CC(N)=O)[C@@H]4CCC(N)=O)[C@@](C)(CC(N)=O)[C@@H]\\3CCC(N)=O)C(C)(C)[C@@H]/2CCC(N)=O.[C-]#N.[Co+3]", "survival": "inactive: 14"}
    ]}
  ]
}
